Target: MAP kinase p38 (Homo sapiens, UniProt O15264+Q15759+Q16539+P53778)
Test: Inhibition of p38 MAPK activity assessed as EGFR phosphorylation
Format: protein assay

Amino acid sequences for entries named in this document (tags omitted). A change or cut given only in a name is not applied to a line headed by its entry.
UniProt O15264: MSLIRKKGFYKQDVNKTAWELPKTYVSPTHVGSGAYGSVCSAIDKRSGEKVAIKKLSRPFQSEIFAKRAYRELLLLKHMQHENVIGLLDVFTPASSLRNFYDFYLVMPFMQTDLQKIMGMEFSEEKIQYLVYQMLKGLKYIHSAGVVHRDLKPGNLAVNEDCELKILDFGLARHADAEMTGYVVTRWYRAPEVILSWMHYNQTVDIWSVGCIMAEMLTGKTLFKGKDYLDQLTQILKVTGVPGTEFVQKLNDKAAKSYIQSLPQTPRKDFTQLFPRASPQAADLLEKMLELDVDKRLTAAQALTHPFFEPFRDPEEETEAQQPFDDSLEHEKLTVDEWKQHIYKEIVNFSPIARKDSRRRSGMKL
UniProt Q15759: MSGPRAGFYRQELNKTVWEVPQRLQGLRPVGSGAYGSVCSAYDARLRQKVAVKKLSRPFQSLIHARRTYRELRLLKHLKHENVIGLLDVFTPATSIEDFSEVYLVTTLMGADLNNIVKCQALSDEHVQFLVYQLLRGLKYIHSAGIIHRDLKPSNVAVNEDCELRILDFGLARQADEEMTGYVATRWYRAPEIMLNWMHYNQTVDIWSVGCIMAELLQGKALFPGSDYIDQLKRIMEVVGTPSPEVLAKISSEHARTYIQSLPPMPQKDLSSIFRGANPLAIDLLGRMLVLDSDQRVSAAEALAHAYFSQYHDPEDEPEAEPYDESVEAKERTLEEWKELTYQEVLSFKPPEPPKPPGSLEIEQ
UniProt Q16539: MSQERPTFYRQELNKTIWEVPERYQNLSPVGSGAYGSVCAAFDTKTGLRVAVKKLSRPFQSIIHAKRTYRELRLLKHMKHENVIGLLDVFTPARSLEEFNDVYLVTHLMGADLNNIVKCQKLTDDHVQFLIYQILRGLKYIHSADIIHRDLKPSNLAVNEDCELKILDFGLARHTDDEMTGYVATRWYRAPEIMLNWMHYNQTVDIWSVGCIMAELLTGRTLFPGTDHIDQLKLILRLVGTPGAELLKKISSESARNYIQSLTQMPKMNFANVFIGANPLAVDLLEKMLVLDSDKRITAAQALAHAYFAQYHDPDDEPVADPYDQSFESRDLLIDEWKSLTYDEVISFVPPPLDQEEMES
UniProt P53778: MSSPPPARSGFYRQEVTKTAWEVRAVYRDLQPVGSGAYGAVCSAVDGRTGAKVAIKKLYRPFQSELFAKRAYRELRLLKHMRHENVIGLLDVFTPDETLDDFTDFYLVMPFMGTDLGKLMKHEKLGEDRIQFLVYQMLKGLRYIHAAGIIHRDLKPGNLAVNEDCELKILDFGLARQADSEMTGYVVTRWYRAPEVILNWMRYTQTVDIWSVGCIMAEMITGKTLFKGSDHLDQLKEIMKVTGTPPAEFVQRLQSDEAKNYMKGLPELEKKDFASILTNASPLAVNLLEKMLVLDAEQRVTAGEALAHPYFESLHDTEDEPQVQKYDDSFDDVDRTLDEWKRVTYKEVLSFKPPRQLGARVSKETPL

`CC1CN(c2[nH]nc(-c3ccc(Cl)cc3)c2-c2ccncc2)CC(C)N1` (stereo unspecified) was tested, and the IC50 was 12 nM.

Source: ChEMBL document CHEMBL1138242, “Synthesis, crystal structure, and activity of pyrazole-based inhibitors of p38 kinase” (J Med Chem, 2007)
